According to PubChem BioAssay AID504648 (National Center for Advancing Translational Sciences (NCATS), 2011):
The list shows a part of the results, in another mix than the full data. Some tests of the compounds listed are not included; inactive here does not mean inactive elsewhere. Records with an inconclusive call do not appear. Calls of active or inactive are those of the source. The call rests on the fitted dose curve; in most records, active means well fitted inhibition curve with a large enough effect; inconclusive means small, poorly fitted or top-dose-only effect, or effect the other way, or another doubt; inactive means no such curve, though single readings can be large or run the other way.
On the % scale 0 is the no-effect control and ±100 the full control effect.

Assay: Nrf2 qHTS screen for inhibitors: counterscreen for cytotoxicity
Details: A549 ARE-Fluc cells, CellTiter-Fluor viability, 18-24 h; at 46 µM (top of the series)
Text: NIH Molecular Libraries Probe Production Network [MLPCN]
NIH Chemical Genomics Center [NCGC]
Assay Provider: Shyam Biswal, Johns Hopkins University
Nrf2 is a transcription factor that maintains cellular redox homoestasis and protects cells from xenobiotics. Nrf2 binds to the antioxidant response element (ARE) to induce gene expression of a broad spectrum of genes that encode for antioxidants. […] Finding a small molecule that act as an inhibitor of Nrf2 function would represent a novel therapeutic target that could lead to improvement in survival of patients undergoing chemo- and/or radio- therapy.
So here we implemented a counterscreen to weed out the cytotoxic compounds.
1. […]
A concentration-response assay was performed with A549 ARE_Fluc cells which are suspended in 5% FBS OPTI-MEM. […] The plate is then incubated at 37deg C at 5% CO2 for 30 minutes before they are read on the ViewLux (Perkin Elmer) for a fluorescent read Ex=405(10)/Em=525(10) for a 3 second exposure, 2x binning, and high gain. […] Afterwards another ViewLux read is performed using the clear filter to get a luminescent read with the settings of 40 second exposure, 2x binning, and high gain. Cytotoxicity is assessed through the first fluorescent read and then biochemical activity against Nrf2 is measured in the luminescent read.
With C=CCN1CCN(CCOC(=O)C(O)(c2ccccc2)c2ccccc2)CC1 the activity change, negative = cytotoxicity was inactive: -2.01%. For CC(C)N1C(=O)CC2(CCN(CCOC(=O)C(O)(c3ccccc3)c3ccccc3)CC2)C1=O, the activity change, negative = cytotoxicity was inactive: -1.62%.
